pIC50: −log10 of the molar value.
Target: T1, human neuronal constitutive NOS (nNOS) (Homo sapiens, UniProt P29475)
T1 construct: purchased ALEXIS; host or cells: Baculovirus-infected Sf9 cells
Experiment: biochemical

Structure (SMILES): CN1CCC(n2cnc3cc(NC(=N)c4cccs4)ccc32)CC1 [Compound 59]
- pIC50: 5.76
